The target of the assay is 5-hydroxytryptamine receptor 3A/3B (Mus musculus, UniProt P23979+Q9JHJ5). The assay can be described thus: Binding affinity towards 5-hydroxytryptamine 3 receptor was determined by using [3H]-ICS 205-930 as radioligand in mouse N1E 115 cells.

The chains behind the UniProt entries cited, without tags or fusion partners. Where a name states a change or a piece, a line headed by the entry shows the natural chain unless it says otherwise. A line that says so, or that is headed by a name, gives the form on record, which may keep a tag or linker.
UniProt P23979, as listed by the source: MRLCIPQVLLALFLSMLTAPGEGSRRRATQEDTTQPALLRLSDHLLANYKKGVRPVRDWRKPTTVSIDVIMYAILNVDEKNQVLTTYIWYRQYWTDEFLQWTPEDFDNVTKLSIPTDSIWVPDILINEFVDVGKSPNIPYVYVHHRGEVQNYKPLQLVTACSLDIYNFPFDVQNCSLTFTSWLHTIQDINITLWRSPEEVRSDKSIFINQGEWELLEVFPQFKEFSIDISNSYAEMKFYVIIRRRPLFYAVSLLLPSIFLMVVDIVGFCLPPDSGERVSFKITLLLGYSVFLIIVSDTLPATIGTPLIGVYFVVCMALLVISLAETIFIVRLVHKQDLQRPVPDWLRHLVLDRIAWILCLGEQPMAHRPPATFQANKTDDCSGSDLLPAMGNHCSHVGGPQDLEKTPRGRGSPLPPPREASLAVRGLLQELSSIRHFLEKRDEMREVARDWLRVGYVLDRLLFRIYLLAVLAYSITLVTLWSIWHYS
UniProt Q9JHJ5: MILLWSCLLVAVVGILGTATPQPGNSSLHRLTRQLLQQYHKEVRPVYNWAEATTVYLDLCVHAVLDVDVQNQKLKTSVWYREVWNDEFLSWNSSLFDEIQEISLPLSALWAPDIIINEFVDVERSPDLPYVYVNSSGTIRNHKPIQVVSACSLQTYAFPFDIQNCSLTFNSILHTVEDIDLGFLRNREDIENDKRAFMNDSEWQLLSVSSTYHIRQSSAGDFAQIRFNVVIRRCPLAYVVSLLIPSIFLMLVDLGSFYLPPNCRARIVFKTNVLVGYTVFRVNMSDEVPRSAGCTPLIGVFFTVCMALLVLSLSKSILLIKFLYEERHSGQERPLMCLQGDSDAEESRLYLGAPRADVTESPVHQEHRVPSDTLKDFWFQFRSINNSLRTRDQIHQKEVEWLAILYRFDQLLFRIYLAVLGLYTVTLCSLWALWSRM

The term Kd denotes the equilibrium constant for the complex coming apart.

Compound `COc1cc(N)c(Cl)cc1C(=O)N[C@H]1CCN2CCC[C@@H]1C2` showed a Kd of 3.2 nM.

The values above are taken from BindingDB's records for doi:10.1021/jm00168a011 (Merrell Dow Research Institute, 1990).
